Test system: BiNav
Assay: Ion channel panel, BiNav
Format: cell-based, Bombus impatiens
Set-up: key: “+” means tested and produced effect; “–“ means tested but no effect
Settings: S12A at 5 μM; Xenopus oocytes, n ≥ 3
Protocol: For the expression of NaV channels (hNav1.1, rNaV1.2, rNaV1.3, rNaV1.4, hNaV1.5, hNaV1.6, hNav1.7, and the insect channel BgNaV1) in Xenopus laevis oocytes, the linearized plasmids were transcribed using the T7 or SP6 mMESSAGE-mMACHINE transcription kit (Ambion, Carlsbad, CA, USA). The harvesting of stage V and VI oocytes from an anaesthetized female X. laevis frog was described previously. , Oocytes were injected with 50 nL of cRNA at a concentration of 1 ng/nL using a microinjector (Drummond Scientific, Broomall, PA, USA). The oocytes were incubated in a solution containing 96 mM NaCl, 2 mM KCl, 1.8 mM CaCl2, 2 mM MgCl2, and 5 mM HEPES (pH 7.4), supplemented with 50 mg/L gentamycin sulfate. […] Whole-cell currents from oocytes were recorded 1–4 days after injection. […]
To assess the concentration–response relationships, data were fitted with the Hill equation: y = 100/[1 + (EC50/[toxin])^ h ], where y is the amplitude of the toxin-induced effect (y = I 30 ms/I peak where I 30 ms is the current value at 30 ms in the presence of toxin and I peak is the peak current amplitude in control conditions), EC50 is the toxin concentration at half-maximal efficacy, [toxin] is the toxin concentration, and h is the Hill coefficient. […] ASIC1a currents were measured in ND96 solutions at a pH of 7.4 and 4.5, at a holding potential of −70 mV during 400 s, and the data were filtered at 20 Hz. […]

CC[C@H](C)[C@@H]1NC(=O)[C@@H](NC(=O)CN)CSSC[C@@H]2NC(=O)[C@@H]3CSSC[C@@H](C(=O)N[C@@H](CC(N)=O)C(=O)N4C[C@H](O)C[C@H]4C(=O)N4C[C@H](O)C[C@H]4C(=O)N[C@@H](CC(N)=O)C(=O)N[C@@H](CCC(N)=O)C(=O)O)NC(=O)[C@H](CCCCN)NC(=O)[C@H](Cc4ccccc4)NC(=O)[C@H](CC(N)=O)NC(=O)[C@H](Cc4c[nH]c5ccccc45)NC(=O)CNC(=O)[C@H](CSSC[C@H](NC(=O)[C@H](Cc4ccccc4)NC(=O)[C@H](CO)NC(=O)CNC(=O)[C@H]([C@@H](C)O)NC(=O)[C@H](C)NC1=O)C(=O)N[C@@H]([C@@H](C)O)C(=O)N[C@@H](CC(C)C)C(=O)N[C@@H](C)C(=O)N[C@@H](CCCCN)C(=O)NCC(=O)N3)NC(=O)[C@H](CC(N)=O)NC(=O)[C@H](CCCCN)NC(=O)[C@H]([C@@H](C)O)NC2=O [Peptide S12A]
effect on BiNav: +
